Earlier results in patent publication US20240050571A1, “CARBORANE HYDROXAMIC ACID MATRIX METALLOPROTEINASE INHIBITORS AND AGENTS FOR BORON NEUTRON CAPTURE THERAPY” (LOYOLA UNIVERSITY OF CHICAGO, priority 2018, published 2024).

Experiments:
[1] = rats; cited from earlier work
[2] = rabbits; cited from earlier work

In the case of Sodium azide, the “LC50 Inhalation” value [1] is listed as 37 mg/m^3 and the “LD50 Dermal” value [2] is listed as 20 mg/kg.
